The results in this text go back to BindingDB's records for 26043948.

Sequences of proteins named here, by UniProt entry; tags and fusion partners are left off. Residues count along the entry.
UniProt P22303, 32-614 limits assumed: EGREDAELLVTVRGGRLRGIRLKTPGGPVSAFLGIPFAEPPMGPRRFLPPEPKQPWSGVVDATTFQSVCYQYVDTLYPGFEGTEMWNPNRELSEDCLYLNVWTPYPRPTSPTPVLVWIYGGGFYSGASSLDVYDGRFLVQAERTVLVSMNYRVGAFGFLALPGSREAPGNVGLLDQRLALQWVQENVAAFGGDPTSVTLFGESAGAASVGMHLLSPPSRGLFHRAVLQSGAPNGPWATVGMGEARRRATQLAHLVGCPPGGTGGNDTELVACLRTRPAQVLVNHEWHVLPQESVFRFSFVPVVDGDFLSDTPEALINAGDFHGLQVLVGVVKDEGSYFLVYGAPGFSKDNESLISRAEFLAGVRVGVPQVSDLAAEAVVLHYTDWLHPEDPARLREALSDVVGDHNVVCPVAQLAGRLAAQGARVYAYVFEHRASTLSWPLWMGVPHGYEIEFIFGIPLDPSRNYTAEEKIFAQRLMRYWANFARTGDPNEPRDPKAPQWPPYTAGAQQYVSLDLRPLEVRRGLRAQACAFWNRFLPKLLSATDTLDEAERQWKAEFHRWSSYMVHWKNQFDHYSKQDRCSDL

For experiment [1], the target named is T1, Acetylcholinesterase (Homo sapiens, UniProt P22303). The experiment is described as follows: ASSAY_NAME: ChEMBL_1507812 (CHEMBL3598676) DESCRIPTION: Reactivation of VX-inhibited human acetylcholinesterase assessed as dissociation constant incubated for 60 mins using ATChI substrate by DTNB dye based UV-visible spectrophotometry.
Experiment [2] has as its target T1, Acetylcholinesterase. The experiment is described as follows: ASSAY_NAME: ChEMBL_1507810 (CHEMBL3598674) DESCRIPTION: Reactivation of sarin-inhibited human acetylcholinesterase assessed as dissociation constant incubated for 60 mins using ATChI substrate by DTNB dye based UV-visible spectrophotometry.

With `COc1ccc(-c2csc(NC(=O)C[n+]3cccc(/C=N/O)c3)n2)cc1`, the equilibrium dissociation constant (Kd) on Acetylcholinesterase [1] was 114 µM; at Acetylcholinesterase [2], 641 µM.

For orientation: Kd means the constant that tells how readily two partners part at equilibrium.
